Results from PubChem BioAssay (NCI).
The entries are a selection whose mix differs from that of the whole data set. Some compounds were tested as several samples or in several runs, with calls that do not always agree. Activity calls are given as the source filed them. Cut-off read from the data, not from the text of the source: active = growth inhibition above about 70%; inactive = the rest.

Experiment: NCI Yeast Anticancer Drug Screen. Data for the wt1 strain (AID 149);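 note: 0% = growth of vehicle-treated wt1 cultures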
Conditions: S. cerevisiae wt1 strain (SPY 50644) growth inhibition, hits give high values
Description: Growth inhibition of yeast strains with defined genetic alterations is measured as a screen for potential anti-cancer activity. Selected strains with alterations in DNA damage repair or cell cycle control were exposed to compounds and growth inhibition was measured relative to vehicle treated controls. The strain used in this assay is wt1

SMILES | growth inhibition (at 1.2 µM) | growth inhibition (at 3.7 µM) | growth inhibition (at 11.0 µM) | growth inhibition (at 33.0 µM) | growth inhibition (at 100.0 µM)
COc1ccc([N+](=O)[O-])c(C[N+](C)(CCCl)CCCl)c1 | inactive: -14% | inactive: -11% | inactive: -8% | inactive: 2% | inactive: 12%
Cn1cnc([N+](=O)[O-])c1C[N+](C)(CCCl)CCCl | inactive: -9% | inactive: -6% | inactive: 1% | inactive: 24% | inactive: 58%
COc1ccc(C[N+](C)(CCCl)CCCl)c([N+](=O)[O-])c1 | inactive: -2% | inactive: 0% | inactive: -2% | inactive: 0% | inactive: 2%
Cc1cccc(C[N+](C)(CCCl)CCCl)c1[N+](=O)[O-] | inactive: 21% | inactive: 26% | inactive: 23% | inactive: 36% | active: 85%
ClCCN1CCCCC1CCl (stereo not given) | inactive: -2% | inactive: 1% | inactive: 1% | inactive: 6% | inactive: 26%
Cc1ccc([N+](=O)[O-])c(C[N+](C)(CCCl)CCCl)c1 | inactive: 17% | inactive: 16% | inactive: 22% | inactive: 44% | active: 82%
